Literature values in patent US20170224772A1, “COMPOSITION AND KIT FOR PREVENTION OR TREATMENT OF ARTHRITIS, AND METHOD USING THE SAME” (Samsung Electronics Co., Ltd., priority 2014, published 2017).

Conditions: cited from earlier work

## CTLA4Ig fusion protein: fusion protein including an extracellular domain of CTLA4 and an Fc domain of immunoglobulin IgG1
Adult rheumatoid arthritis patients, hypodermic injection
  in vivo half-life: about 14.3 days
Healthy individuals
  in vivo half-life: about 16.7 days
Rheumatoid arthritis patients
  in vivo half-life: about 13.1 days

Where two headings read alike, the source gives them in different places.
